Data as given in PMC2288786, “Interaction between the C-terminal region of human myelin basic protein and calmodulin: analysis of complex formation and solution structure” (BMC Structural Biology, 2008).

Molecular target: T1, CaM (Rattus norvegicus, UniProt P0DP29)
T1 construct: made in house; host or cells: E. coli Rosetta (DE3)
Assay: Thermal denaturation of CaM with and without MBP peptide followed by CD
Format: physicochemical, vertebrate
Conditions: CD at 222 nm, 30°C/h from +20 to +98°C

Substance: calmodulin [CaM]
- temperature of major denaturation transition: ~90 °C
